Data on one molecule can be found in patent US7166588B2 (priority 2000, dated 2007).

By UniProt entry, the sequences of proteins in these tests, tags left out. Residues count along the entry.
UniProt P22303, 32-614 limits assumed: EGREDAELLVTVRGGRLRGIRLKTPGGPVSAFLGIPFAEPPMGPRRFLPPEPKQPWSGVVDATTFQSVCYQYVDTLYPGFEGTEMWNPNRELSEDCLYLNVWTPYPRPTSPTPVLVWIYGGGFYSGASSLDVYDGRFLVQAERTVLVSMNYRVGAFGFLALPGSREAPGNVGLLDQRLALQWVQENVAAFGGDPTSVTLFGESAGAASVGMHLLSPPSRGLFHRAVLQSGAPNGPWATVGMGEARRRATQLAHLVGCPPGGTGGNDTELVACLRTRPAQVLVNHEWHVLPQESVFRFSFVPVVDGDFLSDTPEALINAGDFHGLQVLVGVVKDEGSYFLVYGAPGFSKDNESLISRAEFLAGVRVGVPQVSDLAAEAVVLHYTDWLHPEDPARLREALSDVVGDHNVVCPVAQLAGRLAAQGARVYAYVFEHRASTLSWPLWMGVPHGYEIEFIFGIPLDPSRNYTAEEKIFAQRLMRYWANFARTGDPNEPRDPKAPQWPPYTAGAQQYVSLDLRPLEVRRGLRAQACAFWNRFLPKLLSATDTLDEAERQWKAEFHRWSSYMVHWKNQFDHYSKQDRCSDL

One may read the IC50 as the concentration that inhibits the measured activity by half.

The assay concerns the target acetylcholinesterase (AChE), human recombinant (Homo sapiens, UniProt P22303). Nature of the assay: Acetylcholinesterase inhibition, IC50 (AChE, mE, hr). Format: biochemical. As to conditions: read-out: IC50 (AChE, mE, hr); human recombinant enzyme; pre-incubation of the enzyme with inhibitor.

As to `COc1ccc2c3c1O[C@@H]1CC(O)C=CC31CC[N+]([O-])=C2` (stereo partly shown), the IC50 came to 50 µM.
